Data on one compound can be found in PubChem BioAssay AID1159561 (GlaxoSmithKline (GSK), 2015).

The subject of this test is NIH-3T3 viability, ATP luminescence. The experiment in a line: murine fibroblast viability via ATP level – cell-based, murine fibroblasts, cytotoxicity control for Trypanosoma cruzi inhibitor project (AID 1159561). The note with it: 4 days.

On to `CC(C)(C)c1ccc(NC2(C(N)=O)CCN(Cc3ccccc3)CC2)cc1`, for which the IC50 is 10 µM.
